In this assay the target is CFTR in F508del/MF-HBE cells (Homo sapiens, UniProt P13569, DEL508-508). Kind of assay: Ussing chamber assay of CFTR-mediated short-circuit currents (identification of potentiator compounds). The conditions noted are these: potentiator incubated 18-24 hours at 37° C. in combination with 10 μM corrector, in the presence of 20% human serum, CFTR-mediated ISC. The procedure:
Ussing chamber experiments were performed using human bronchial epithelial (HBE) cells derived from CF subjects heterozygous for F508del and a minimal function CFTR mutation (F508del/MF-HBE) and cultured as previously described (Neuberger T, Burton B, Clark H, Van Goor F; Methods Mol. Biol. 2011:741:39-54). After four days the apical media was removed, and the cells were grown at an air liquid interface for >14 days prior to use.
To isolate the CFTR-mediated short-circuit (ISC) current, F508del/MF-HBE grown on Costar® Snapwell™ cell culture inserts were mounted in an Ussing chamber and the transepithelial ISC was measured under voltage-clamp recording conditions (Vhold=0 mV) at 37° C. The basolateral solution contained (in mM) 145 NaCl, 0.83 K2HPO4, 3.3 KH2PO4, 1.2 MgCl2, 1.2 CaCl2), 10 Glucose, 10 HEPES (pH adjusted to 7.4 with NaOH) and the apical solution contained (in mM) 145 NaGluconate, 1.2 MgCl2, 1.2 CaCl2), 10 glucose, 10 HEPES (pH adjusted to 7.4 with NaOH) and 30 μM amiloride to block the epithelial sodium channel. […] The CFTR-mediated ISC (μA/cm^2) for each condition was determined from the peak forskolin response to the steady-state current following inhibition.
The activity of the CFTR potentiator compounds on the CFTR-mediated ISC was determined in Ussing chamber studies as described above. […]

Amino acid sequences for entries named in this document (tags omitted). Chains listed by the source or under a name are the forms on record and can include a tag or linker.
UniProt P13569, with tags, fused parts or gaps DEL508-508: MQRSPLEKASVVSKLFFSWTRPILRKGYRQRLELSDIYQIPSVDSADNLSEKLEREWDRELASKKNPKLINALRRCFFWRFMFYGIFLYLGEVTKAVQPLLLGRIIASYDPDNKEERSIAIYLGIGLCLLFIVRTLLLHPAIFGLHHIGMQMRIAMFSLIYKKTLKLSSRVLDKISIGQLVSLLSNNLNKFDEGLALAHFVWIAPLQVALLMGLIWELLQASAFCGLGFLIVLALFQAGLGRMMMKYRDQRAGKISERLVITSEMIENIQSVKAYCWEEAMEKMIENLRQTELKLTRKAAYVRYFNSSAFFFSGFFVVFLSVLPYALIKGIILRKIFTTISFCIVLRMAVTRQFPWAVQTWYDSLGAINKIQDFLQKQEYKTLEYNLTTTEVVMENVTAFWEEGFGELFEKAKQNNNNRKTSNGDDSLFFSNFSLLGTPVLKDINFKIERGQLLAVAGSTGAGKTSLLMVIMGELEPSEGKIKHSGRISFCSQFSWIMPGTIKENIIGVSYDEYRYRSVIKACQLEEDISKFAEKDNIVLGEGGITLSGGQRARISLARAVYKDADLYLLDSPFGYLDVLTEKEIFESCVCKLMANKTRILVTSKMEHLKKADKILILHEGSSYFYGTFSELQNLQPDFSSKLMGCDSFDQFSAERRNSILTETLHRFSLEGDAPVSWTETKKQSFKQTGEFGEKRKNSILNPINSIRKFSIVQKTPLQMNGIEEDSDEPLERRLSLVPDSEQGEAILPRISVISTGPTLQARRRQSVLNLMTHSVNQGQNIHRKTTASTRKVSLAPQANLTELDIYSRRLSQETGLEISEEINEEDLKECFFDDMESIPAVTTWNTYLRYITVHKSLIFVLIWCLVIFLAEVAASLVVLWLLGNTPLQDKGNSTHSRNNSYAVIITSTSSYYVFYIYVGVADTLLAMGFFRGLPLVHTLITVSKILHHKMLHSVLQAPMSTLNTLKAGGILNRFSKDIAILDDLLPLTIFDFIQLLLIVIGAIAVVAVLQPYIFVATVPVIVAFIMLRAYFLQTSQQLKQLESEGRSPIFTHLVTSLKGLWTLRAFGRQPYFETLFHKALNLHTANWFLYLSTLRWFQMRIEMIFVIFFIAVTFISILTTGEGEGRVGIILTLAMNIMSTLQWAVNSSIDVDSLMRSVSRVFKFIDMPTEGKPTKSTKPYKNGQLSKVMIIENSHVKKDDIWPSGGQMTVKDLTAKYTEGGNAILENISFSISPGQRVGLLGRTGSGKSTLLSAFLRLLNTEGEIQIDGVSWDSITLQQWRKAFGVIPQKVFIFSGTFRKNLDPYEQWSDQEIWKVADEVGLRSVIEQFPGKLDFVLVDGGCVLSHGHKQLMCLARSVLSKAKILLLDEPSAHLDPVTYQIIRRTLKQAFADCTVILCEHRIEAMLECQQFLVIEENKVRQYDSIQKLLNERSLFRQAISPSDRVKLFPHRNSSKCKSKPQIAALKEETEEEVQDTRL

Molecules are shown by their SMILES.

By EC50 is commonly meant the concentration that produces a half-maximal response.

With `CC(C)(c1ccc(CN2CCCCC[C@](O)(C(F)(F)F)C3=NN=C(O3)c3nc(c(C(F)(F)F)cc3N)C2=O)cc1)C(F)(F)F`, the EC50 was less than 500 nM.

For the origin of these results see patent US20250122218A1, “MODULATORS OF CYSTIC FIBROSIS TRANSMEMBRANE CONDUCTANCE REGULATOR” (Vertex Pharmaceuticals Incorporated, priority 2022, published 2025).
